Experimental data taken from patent US7910622B2, “Modulation of bacterial quorum sensing with synthetic ligands” (Wisconsin Alumni Research Foundation, priority 2007, dated 2011).
pEC50: −log10 of the molar value. “And” between values parts separate entries of the source, which are not always exact repeats. Equal entries are not always repeated.

Protein sequences, listed by entry. Tags and fused reporters are not part of them.
UniProt P35327, whole entry: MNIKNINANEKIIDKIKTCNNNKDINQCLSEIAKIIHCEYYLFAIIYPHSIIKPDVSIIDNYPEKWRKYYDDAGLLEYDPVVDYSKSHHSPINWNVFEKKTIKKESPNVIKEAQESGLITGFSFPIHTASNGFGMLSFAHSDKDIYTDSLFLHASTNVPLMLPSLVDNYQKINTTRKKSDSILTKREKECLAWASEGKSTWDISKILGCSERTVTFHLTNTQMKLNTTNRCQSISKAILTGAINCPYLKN

What was measured:
LuxR [1] = biological target: T1, LuxR (Aliivibrio fischeri, UniProt P35327); details: 5 μM synthetic ligand against 5 μM OHHL; V. fischeri ES114 (Δ-luxI); normalized to OHHL
LuxR [2] = biological target: T1, LuxR; details: read-out: LuxR EC50; V. fischeri ES114 (Δ-luxI)

## O=C(Cc1cccc(Br)c1)N[C@H]1CCOC1=O
LuxR [1]
  V. fischeri-LuxR Inhibition [%]: 58% and 48%
LuxR [2]
  pEC50: < 4.30

## O=C(Cc1cccc(Cl)c1)N[C@H]1CCOC1=O
LuxR [2]
  pEC50: < 3.70
